Chains of the proteins cited; added tags and fusions are not shown. Lines headed by an entry give the natural chain unless they say otherwise; changes in a name come on top.
UniProt P30994: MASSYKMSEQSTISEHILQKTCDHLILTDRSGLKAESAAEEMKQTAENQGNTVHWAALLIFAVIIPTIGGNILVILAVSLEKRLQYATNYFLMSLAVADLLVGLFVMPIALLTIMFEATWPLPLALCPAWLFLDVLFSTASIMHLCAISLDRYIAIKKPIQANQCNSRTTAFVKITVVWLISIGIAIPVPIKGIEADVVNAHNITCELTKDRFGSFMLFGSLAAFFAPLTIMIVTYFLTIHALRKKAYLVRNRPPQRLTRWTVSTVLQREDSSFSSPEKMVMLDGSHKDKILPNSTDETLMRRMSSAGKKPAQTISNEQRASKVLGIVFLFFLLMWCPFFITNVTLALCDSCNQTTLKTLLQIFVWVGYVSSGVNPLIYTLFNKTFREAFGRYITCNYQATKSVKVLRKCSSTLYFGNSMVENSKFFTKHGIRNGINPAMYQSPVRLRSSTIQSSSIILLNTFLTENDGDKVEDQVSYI
UniProt P08909: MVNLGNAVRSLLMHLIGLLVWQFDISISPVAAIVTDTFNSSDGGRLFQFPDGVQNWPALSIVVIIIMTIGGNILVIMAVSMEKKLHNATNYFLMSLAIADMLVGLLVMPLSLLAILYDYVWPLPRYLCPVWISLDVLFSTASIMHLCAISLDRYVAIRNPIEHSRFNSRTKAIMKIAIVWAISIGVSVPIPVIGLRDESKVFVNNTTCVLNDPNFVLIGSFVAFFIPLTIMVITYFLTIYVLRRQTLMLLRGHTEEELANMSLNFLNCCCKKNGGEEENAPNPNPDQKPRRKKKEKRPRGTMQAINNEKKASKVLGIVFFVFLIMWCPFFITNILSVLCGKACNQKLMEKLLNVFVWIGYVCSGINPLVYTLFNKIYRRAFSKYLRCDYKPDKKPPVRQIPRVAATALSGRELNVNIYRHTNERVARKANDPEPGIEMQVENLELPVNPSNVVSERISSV
UniProt P14842: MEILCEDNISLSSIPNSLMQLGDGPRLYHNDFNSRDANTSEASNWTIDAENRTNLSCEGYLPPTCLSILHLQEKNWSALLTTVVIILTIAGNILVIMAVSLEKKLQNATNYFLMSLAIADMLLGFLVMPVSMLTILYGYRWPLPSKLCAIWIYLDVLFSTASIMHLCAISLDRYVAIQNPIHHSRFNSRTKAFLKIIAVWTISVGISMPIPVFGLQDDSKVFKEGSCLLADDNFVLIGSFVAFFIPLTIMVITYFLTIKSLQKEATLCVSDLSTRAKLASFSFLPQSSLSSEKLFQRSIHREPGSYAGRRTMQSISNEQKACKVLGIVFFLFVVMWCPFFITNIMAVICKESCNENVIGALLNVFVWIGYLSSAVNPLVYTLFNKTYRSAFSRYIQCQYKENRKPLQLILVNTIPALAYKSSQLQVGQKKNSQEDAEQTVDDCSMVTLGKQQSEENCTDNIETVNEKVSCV
UniProt P28564, whole entry: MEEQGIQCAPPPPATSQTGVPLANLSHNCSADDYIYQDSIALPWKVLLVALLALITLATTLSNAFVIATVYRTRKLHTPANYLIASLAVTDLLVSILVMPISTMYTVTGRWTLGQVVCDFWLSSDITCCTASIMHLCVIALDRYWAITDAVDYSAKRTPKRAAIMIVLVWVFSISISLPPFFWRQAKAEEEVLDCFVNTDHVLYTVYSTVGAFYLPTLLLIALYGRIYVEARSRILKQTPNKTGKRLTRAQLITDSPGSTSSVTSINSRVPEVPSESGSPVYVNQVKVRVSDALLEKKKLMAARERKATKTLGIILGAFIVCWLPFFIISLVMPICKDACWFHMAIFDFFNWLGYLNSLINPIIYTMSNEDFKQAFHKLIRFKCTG

In ChEMBL document CHEMBL1124092 (J Med Chem, 1988):

Legend:
[1] = biological target: Serotonin 2 (5-HT2) receptor (Rattus norvegicus, UniProt P30994+P08909+P14842); assay: Binding affinity towards 5-hydroxytryptamine 2 receptor using [3H]- 1-(4-bromo-2,5-dimethoxy-phenyl)-2-aminopropane (D) as radioligand; type: protein assay
[2] = biological target: 5-hydroxytryptamine receptor 1B (Rattus norvegicus, UniProt P28564); assay: Evaluated for binding affinity towards 5-hydroxytryptamine 1B receptor

Structure (SMILES)	Ki [1] [µM]	Ki [2] [µM]
COc1ccc2[nH]cc(CCN)c2c1 [5-METHOXYTRYPTAMINE]	0.0048	–
CCCN(CCC)C1CCc2cccc(O)c2C1 (configuration not stated) [8-OH-DPAT]	–	> 10
